{"source": "ChEMBL document CHEMBL1144935", "about": "“Synthesis, biological evaluation, and receptor docking simulations of 2-[(acylamino)ethyl]-1,4-benzodiazepines as kappa-opioid receptor agonists endowed with antinociceptive and antiamnesic activity” (J Med Chem, 2003)", "molecular_target": "Delta-type opioid receptor (Homo sapiens, UniProt P41143)", "data": [{"smiles": "CN1c2ccc(Cl)cc2C(c2ccccc2)=NCC1CCNC(=O)c1cccs1", "note": "(stereo unspecified)", "values": [{"measurement": "Ki", "value": 494, "unit": "nM"}]}]}
